Experimental data: patent US20260042834A1, “ANTI-CORTICOTROPIN-RELEASING HORMONE ANTIBODIES AND POLYCYSTIC OVARY SYNDROME” (HBM ALPHA THERAPEUTICS, INC., priority 2022, published 2026)

Columns and labels:
human CRHR1 = test: CRH-induced luciferase reporter blocking assay, CHO-CRE-hCRHR1 cells; format: cell-based; settings: 0.5 nM CRH
Procedure: To create CHO-CRE-hCRHR1, -hCRHR2, -mCRHR1, and -mCRHR2 reporter cell lines, pcDNA3.1-hCRHR1, -hCRHR2, -mCRHR1, and -mCRHR2 were introduced into CHO-CRE cells established above by electroporation as described above. Selection antibiotics hygromycin at 500 μg/ml and G418 at 1,000 μg/ml were employed. Individual established stable cell lines were characterized by both CRH and forskolin stimulation.
Activated GPCR proteins increase production of the intracellular cAMP.
Blocking CRHR1 by small molecules or neutralization of CRH peptide can reduce luciferase expression if the CRH-CRHR1 system works in CHO-CRE-hCRHR1 cells.
50 μl of 4× serially diluted antibodies was added (8 points, 1/4 diluted by growth medium) to plates containing CHO-CRE-hCRHR1 cells, and 50 μl of 4×CRH (4× is 2 nM, final is 0.5 nM) was added. Similarly, 4×CRH (4× is 0.4 nM, final is 0.1 nM) was added to CHO-CRE-hCRHR2 cells and CHO-CRE-mCRHR1 cells, and 4×CRH (4× is 20 nM, final is 5 nM) was added to CHO-CRE-mCRHR2 cells. Next, plates were incubated 4-6 hours at 37° C. in a CO2 incubator. 60 μl of culture medium was removed, to which was added 60 μl of Bio-Glo luciferase, followed by incubation for 10 min at RT. Plates were read in a luciferase plate reader (EnVision, PerkinElmer).

[1] = In vivo PK study in female C57BL/6 mice; set-up: species or system mouse; settings: single IV dose 5 mg/kg
Procedure: For each antibody tested, 6 female C57BL/6 mice with a weight of 18-22 grams were selected, and antibody was administered intravenously at a single dose of 5 mg/kg. Whole blood was collected from 3 mice before and 15 minutes, 24 hours (1 day), 4, and 10 days after administration. Whole blood from the remaining 3 mice was collected before and 5 hours, 2, 7, and 14 days after administration. Whole blood was allowed to stand for 30 minutes to coagulate and then centrifuged. Separated serum was then frozen at −80° C. until analysis.
ELISA was used to quantitatively determine the drug concentration in mouse serum. Tested antibodies (with human Fc) in mice serum were captured by goat anti-human Fc polyclonal antibody (Rockland, #609-101-017) pre-coated on a 96-well plate. HRP-labeled goat anti-human (H+L) secondary antibody (Abcam, #ab97175) was then added into the wells. Plates were then sealed and incubated at 37° C. for 30 minutes, followed by washing and adding TMB substrate and ELISA stopping solution. 96-well plates were read at 450/630 nm wavelength using SpectraMax M2. Data was processed by Soft Max Pro.
Pharmacokinetic (PK) parameters were analyzed by Phoenix WinNonlin version 8.2 with non-compartmental model (NCA).

human UCN1 = target: T1, human UCN1 (Homo sapiens, UniProt P55089); test: Human UCN1 ELISA binding; settings: Table 10; hUCN1 CT-biotin
T1 sequence (P55089 83-122 limits assumed): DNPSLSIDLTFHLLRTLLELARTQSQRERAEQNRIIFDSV
Procedure: Streptavidin (Thermo, Cat: 21125) was diluted in PBS to a concentration of 2 μg/ml. 100 μl of diluted streptavidin was added per well to ELISA microplates, and the plates were incubated overnight at 4° C. Plates were blocked with ELISA blocking solution (containing 2% w/v BSA, 0.05% (v/v) Tween-20, pH 7.4 PBS buffer) at 37° C. for 1 hour, and then incubated with 0.5 μg/mL CRH (NT biotin), 0.5 μg/mL CRH (CT biotin), 1 μg/mL human UCN1 (NT biotin), or 1 μg/mL human UCN1 (CT biotin) for 1 hour at 37° C. Plates were then washed and incubated with diluted anti-CRH antibody (Ab) at 15 μg/ml (100 nM, 10 diluted, 8 points) for 1 hour at 37° C. Subsequently, plates were washed and incubated with HRP-conjugated goat anti-human IgG (H+L) antibody (Jackson, Cat: 109-035-088) at 37° C. for 1 hour. […] 100 μL of ELISA stopping solution (Solarbio, Cat #: C1058) was added to terminate the reaction, and the optical density at 450 nm (OD450 nm) was determined by an ELISA plate reader (Molecular Devices, Spectra max 384 plus).
Streptavidin (Thermo, Cat: 21125) was diluted in PBS with a concentration of 2 μg/mL. […] 100 μL of ELISA stopping solution (Solarbio, Cat #: C1058) was then added to terminate the reaction, and the OD450 nm was determined by an ELISA plate reader (Molecular Devices, Spectra max 384 plus).

B1: PR005660: ΔPTM variant of Series 1 mAb PR004290; HCDR2 54EG55, LCDR1 36QS37 (antibody)
heavy: EVQLVESGGVLVQPGGSLRLSCAASGFTFSSYWMTWVRQAPGKGLEWVANIKQEGSEKYYVDSVKGRFTISRDNAKNSLFLQMNSLRAEDTAVYYCARTLIFDYWGQGTLVTVSSASTKGPSVFPLAPSSKSTSGGTAALGCLVKDYFPEPVTVSWNSGALTSGVHTFPAVLQSSGLYSLSSVVTVPSSSLGTQTYICNVNHKPSNTKVDKKV[human IgG1 Fc not listed]
light: DIVMTQSPLSLPVTPGEPASISCRSSQSLLHSTGYQSLEWYLQKPGQSPQLLIYLGSNRASGVPDRFSGSGSGTDFTLKISRVEAEDVGIYYCMQTLQTPITFGQGTRLEIKRTVAAPSVFIFPPSDEQLKSGTASVVCLLNNFYPREAKVQWKVDNALQSGNSQESVTEQDSKDSTYSLSSTLTLSKADYEKHKVYACEVTHQGLSSPVTKSFNRGEC
IC50 (human CRHR1): ~10 nM

B2: PR004290: Series 1 anti-CRH mAb from hybridoma clone 28b3 (CRH knockout H2L2 mice), recombinant with human IgG1 wildtype Fc (antibody)
heavy: EVQLVESGGVLVQPGGSLRLSCAASGFTFSSYWMTWVRQAPGKGLEWVANIKQDGSEKYYVDSVKGRFTISRDNAKNSLFLQMNSLRAEDTAVYYCARTLIFDYWGQGTLVTVSSASTKGPSVFPLAPSSKSTSGGTAALGCLVKDYFPEPVTVSWNSGALTSGVHTFPAVLQSSGLYSLSSVVTVPSSSLGTQTYICNVNHKPSNTKVDKKV[human IgG1 Fc not listed]
light: DIVMTQSPLSLPVTPGEPASISCRSSQSLLHSTGYNSLEWYLQKPGQSPQLLIYLGSNRASGVPDRFSGSGSGTDFTLKISRVEAEDVGIYYCMQTLQTPITFGQGTRLEIKRTVAAPSVFIFPPSDEQLKSGTASVVCLLNNFYPREAKVQWKVDNALQSGNSQESVTEQDSKDSTYSLSSTLTLSKADYEKHKVYACEVTHQGLSSPVTKSFNRGEC
serum half-life (T1/2) ([1]; C57BL/6 wildtype mice): 14 days | AUClast ([1]; female C57BL/6 wildtype mice): 18785 ± 1414 µg·h/mL | C0 ([1]; female C57BL/6 wildtype mice): 141 µg/mL | CL_pred ([1]; female C57BL/6 wildtype mice): 4.85 mL/day/kg | T1/2 ([1]; female C57BL/6 wildtype mice): 14.1 days | Vss—pred ([1]; female C57BL/6 wildtype mice): 0.0944 L/kg

B3: PR302341-28: Series 10 humanized, PTM-removed anti-CRH mAb (Table 9), scaled up for in vivo studies (antibody)
heavy: QVQLVQSGAEVKKPGASVKVSCKASGYTFTDYFMKWVRQAPGQGLEWMGVINPNQGDIFYNQKFKGRVTMTVDKSISTAYMELSRLRSDDTAVYYCARGTDRALFAYWGQGTLVTVSSASTKGPSVFPLAPSSKSTSGGTAALGCLVKDYFPEPVTVSWNSGALTSGVHTFPAVLQSSGLYSLSSVVTVPSSSLGTQTYICNVNHKPSNTKVDKKV[human IgG1 Fc not listed]
light: DVVMTQSPLSLPVTLGQPASISCRSGQSIVHSDGNTYLEWYQQRPGQSPRLLIYKVSNRFSGVPDRFSGSGSGTDFTLKISRVEAEDLGVYYCFQGSHIPWTFGGGTKVEIKRTVAAPSVFIFPPSDEQLKSGTASVVCLLNNFYPREAKVQWKVDNALQSGNSQESVTEQDSKDSTYSLSSTLTLSKADYEKHKVYACEVTHQGLSSPVTKSFNRGEC
EC50 (human UCN1): 0.32 nM
